{
  "source": "patent US4613608A",
  "about": "(priority 1982, dated 1986)",
  "key": {"small coronary artery": {"test_system": "small coronary artery", "settings": "small coronary artery strips (0.5 mm outside diameter), 35 mM KCl tonus, papaverine 10^-4 M = 100%"}, "large coronary artery": {"test_system": "large coronary artery", "settings": "for ED50 Large (L): large coronary artery strips (2.0 mm outside diameter), 35 mM KCl tonus, papaverine 10^-4 M = 100%; for S/L: ratio of ED50 small to ED50 large coronary artery"}},
  "data": [
    {"smiles": "O=[N+]([O-])OCc1cc(Cl)cc(CO[N+](=O)[O-])n1", "values": [
      {"measurement": "ED50 Small (S)", "setting": "small coronary artery", "result": 0.23, "unit": "µg/mL"},
      {"measurement": "ED50 Large (L)", "setting": "large coronary artery", "result": 0.00275, "unit": "µg/mL"},
      {"measurement": "S/L", "setting": "large coronary artery", "result": 83.6}
    ]},
    {"smiles": "O=[N+]([O-])OCc1cccc(CO[N+](=O)[O-])n1", "values": [
      {"measurement": "ED50 Small (S)", "setting": "small coronary artery", "result": 0.225, "unit": "µg/mL"},
      {"measurement": "ED50 Large (L)", "setting": "large coronary artery", "result": 0.004, "unit": "µg/mL"},
      {"measurement": "S/L", "setting": "large coronary artery", "result": 56.3}
    ]}
  ]
}
